From US10647719B2, “Bicyclic compounds as dual ATX/CA inhibitors” (Hoffmann-La Roche Inc., priority 2015, dated 2020) come the findings set out here.

The target in this assay is human ATX (Homo sapiens (Human), UniProt Q13822). As to the kind of experiment: Human ATX enzyme inhibition assay (fluorescence quenching, MR121 substrate). Particulars: human His-tagged ATX 30 nM, MR121 substrate 1 μM, 30° C. It counts as biochemical. The method, then:
Human ATX Enzyme Inhibition Assay
ATX inhibition was measured by a fluorescence quenching assay using a specifically labeled substrate analogue (MR121 substrate). To obtain this MR121 substrate, BOC and TBS protected 6-amino-hexanoic acid (R)-3-({2-[3-(2-{2-[2-(2-amino-ethoxy)-ethoxy]-ethoxy}-ethoxy)-propionylamino]-ethoxy}-hydroxy-phosphoryloxy)-2-hydroxy-propyl ester (Ferguson et al., Org Lett 2006, 8 (10), 2023) was labeled with MR121 fluorophore (CAS 185308-24-1, 1-(3-carboxypropyl)-11-ethyl-1,2,3,4,8,9,10,11-octahydro-dipyrido[3,2-b:2′,3′-i]phenoxazin-13-ium) on the free amine of the ethanolamine side and then, after deprotection, subsequently with tryptophan on the side of the aminohexanoic acid.
Assay working solutions were made as follows:
Assay buffer (50 mM Tris-HCl, 140 mM NaCl, 5 mM KCl, 1 mM CaCl2, 1 mM MgCl2, 0.01% Triton-X-100, pH 8.0;
ATX solution: ATX (human His-tagged) stock solution (1.08 mg/mL in 20 mM bicine, pH 8.5, 0.15 M NaCl, 10% glycerol, 0.3% CHAPS, 0.02% NaN3), diluted to 1.4-2.5× final concentration in assay buffer;
MR121 substrate solution: MR121 substrate stock solution (800 μM MR121 substrate in DMSO), diluted to 2-5× final concentration in assay buffer.
Test compounds (10 mM stock in DMSO, 8 μL) were obtained in 384 well sample plates (Corning Costar #3655) and diluted with 8 μL DMSO. […]

pIC50: −log10 of the molar value.

Take `CC(C)(C)C(=O)Nc1cc(C#N)cnc1COC(=O)N1CC2=C(C1)CN(C(=O)c1c(F)cc(S(N)(=O)=O)cc1F)C2` [Example 1.25, [5-cyano-3-(2,2-dimethylpropanoylamino)pyridin-2-yl]methyl 2-(2,6-difluoro-4-sulfamoylbenzoyl)-1,3,4,6-tetrahydropyrrolo[3,4-c]pyrrole-5-carboxylate]: the pIC50 was 8.52.

`CC(C)(C)C(=O)Nc1cc(C#N)cnc1COC(=O)N1CC2=C(C1)CN(C(=O)c1ccc(S(N)(=O)=O)cc1F)C2` [Example 1.24, [5-cyano-3-(2,2-dimethylpropanoylamino)pyridin-2-yl]methyl 2-(2-fluoro-4-sulfamoylbenzoyl)-1,3,4,6-tetrahydropyrrolo[3,4-c]pyrrole-5-carboxylate] gave a pIC50 of 8.52.

For orientation: pIC50 means the negative decadic logarithm of the IC50, by convention in mol/L.
